This is an account of results in published antibiotic growth screens (doi:10.1038/s41589-023-01349-8).

The structures appear in SMILES notation. The list shows a part of the results.

The test system of the assay is A. baumannii ATCC 17978. The assay can be described thus: relative growth (fraction of control); higher = less inhibition. The settings on record: 50 µM.
`COCCNC(=O)C[C@@H]1CC[C@H](NS(=O)(=O)c2ccc(C)cc2)[C@H](CO)O1` had a relative growth of 1.06.
`Clc1ccc(-c2csc(-c3ccc4c(c3)CCO4)n2)s1` yielded a relative growth of 1.08.
For `Cc1ccc(S(=O)(=O)C[C@H](C)N2CCOCC2)c(S(=O)(=O)C[C@@H](C)N2CCOCC2)c1` the value was 1.09; for `OC[C@@H](O)[C@H]1O[C@H](c2ccccc2)OC[C@@H]1O`, 0.86.
As for `COc1ccc(CN2CCN(C(c3ccc(F)cc3)c3ccc(F)cc3)CC2)c(OC)c1OC.Cl`, the figure is 1.17.
As for `CC(=O)OCC(=O)[C@@]1(O)[C@H](C)CC2C3CCC4=CC(=O)C=C[C@]4(C)[C@@]3(F)[C@@H](O)C[C@@]21C` (stereo not given in full), the figure is 0.944.
Take `COc1cccc(C#Cc2ccc3c(c2)O[C@@H](CN(C)C(=O)CN2CCOCC2)[C@H](C)CN([C@@H](C)CO)S3(=O)=O)c1`: the relative growth was found to be 0.681.
On to `COc1ccc([C@@H]([C@H](Cc2ccccc2)OC(C)=O)N2C[C@@H](CC(=O)N(C)C)[C@H]3[C@@H]([C@@H]2Cc2ccccc2)N(C)O[C@@H]3c2ccccc2)cc1`, for which the relative growth came out at 1.2.
Regarding `COc1ccc(/C=C/C(=O)Nc2ccccc2C(=O)O)cc1OC`, the relative growth came out at 1.08.
As for `COCC(=O)Nc1ccc2c(c1)C(=O)N(C)C[C@H](OC)[C@@H](C)CN(Cc1ccccc1F)[C@H](C)CO2`, the figure is 0.908; as for `COCCOC(=O)N1C(=O)[C@@]2(c3ccccc31)[C@H](c1ccc(OCCO)cc1)N1[C@H](c3ccccc3)[C@H](c3ccccc3)OC(=O)[C@H]1[C@@H]2C(=O)Nc1nc2ccccc2s1`, 0.902; as for `COc1ccc(S(=O)(=O)N2C[C@H](O)COC[C@@H]3O[C@H](CC(=O)N[C@H]4CCN(Cc5ccccc5)C4)CC[C@H]32)cc1`, 1.09.
For `C=CC[C@@H](CC(=O)N[C@@H](CO)Cc1ccccc1)C(=O)NC[C@H](OC(=O)[C@@H](CC=C)Cc1ccc(F)cc1)c1ccccc1` the value was 0.844; for `Nc1ccc(S(=O)(=O)[N-]c2cnc3ccccc3n2)cc1.[Na+]`, 1.
Turning to `C=C(C)[C@@H]1CC[C@]2(CO)CC[C@]3(C)[C@H](CCC4[C@@]5(C)CC[C@H](O)C(C)(C)C5CC[C@]43C)C12` (stereo not given in full), the relative growth amounted to 0.818.
`Oc1ccc(/C=C/c2cc(O)cc(O)c2)cc1` yielded a relative growth of 1.18.
For `COCC#Cc1ccc2c(c1)O[C@H](CN(C)S(=O)(=O)c1cccc(OC)c1)[C@H](C)CN([C@@H](C)CO)S2(=O)=O` the value was 1.05; for `O[C@@H]1[C@@H](O)[C@H](OC/C=C/c2ccccc2)O[C@H](CO[C@@H]2OC[C@@H](O)[C@@H](O)[C@@H]2O)[C@H]1O`, 1.08; for `COc1cc2c(cc1OC)C1Cc3ccc(OC)c(OC)c3CN1CC2` (stereo not given), 0.914.
In turn, `CC(=O)N[C@H]1[C@H]([C@H](O)[C@H](O)CO)OC(C(=O)O)=C[C@@H]1NC(=N)N` had a relative growth of 0.909.
As for `CN(C)CCOC(=O)C(c1ccccc1)C1(O)CCCC1.Cl` (stereo not given), the figure is 1.09; as for `CC1(C)C2CCC1(C)C(O)C2` (stereo not given), 0.881; as for `COc1ccc(-n2cc(C(=O)NO)nn2)cc1`, 1.12.
As for `O=C(Nc1cccc2cccnc12)[C@H]1[C@@H](c2ccc(Br)cc2)CC(=O)N1C(=O)OCc1ccccc1`, the figure is 1.19; as for `CC(C)CC#Cc1ccc2c(c1)O[C@@H](CN(C)CC1CCOCC1)[C@@H](C)CN([C@H](C)CO)S2(=O)=O`, 0.793.
In turn, `COCC(=O)N1C[C@H](C)[C@@H](OC)CN(C)C(=O)c2cc(NC(=O)Nc3cccc(F)c3)ccc2OC[C@H]1C` yielded a relative growth of 1.01.
For `NCC[C@@H]1CC[C@H](NC(=O)c2ccccc2F)[C@H](CO)O1` the value was 1.02.
`CN(N=O)C(=O)N[C@@H]1[C@@H](O)[C@H](O)[C@@H](CO)O[C@@H]1O` gave a relative growth of 0.91.
`COc1cccc(S(=O)(=O)Nc2ccc3c(c2)[C@@H]2C[C@@H](CC(=O)NCCc4ccccc4)O[C@@H](CO)[C@@H]2O3)c1`: the relative growth stood at 0.784.
As for `O=C(C[C@H]1CC[C@H]2[C@@H](COC[C@H](O)CN2Cc2cc(F)ccc2F)O1)N[C@@H]1CCN(Cc2ccccc2)C1`, the figure is 0.943; as for `C=C(C)CNc1nc(-c2ccccc2)c(-c2ccccc2)s1`, 1.28; as for `CCC(=O)N1CCC(C(=O)O)CC1`, 0.9.
Regarding `Cc1c(N(C)C)c(=O)n(-c2ccccc2)n1C`, the relative growth is 1.12.
On to `Oc1c(Cl)cc(Cl)c(Cl)c1Cc1c(O)c(Cl)cc(Cl)c1Cl`, for which the relative growth is 0.26.
As for `CN1CCN(C(=O)C[C@H]2CC[C@H]3[C@@H](COC[C@H](O)CN3C(=O)C3CC3)O2)CC1`, the figure is 0.851.
For `COc1ccccc1C#Cc1cnc2c(c1)C(=O)N([C@H](C)CO)C[C@H](C)[C@@H](CN(C)C(=O)CC1CC1)O2` the value was 0.831.
For `O=C(C[C@@H]1C[C@H]2c3cc(NC(=O)Nc4ccccc4)ccc3O[C@H]2[C@@H](CO)O1)NCCN1CCCCC1` the value was 0.93; for `NCCCCCNC(=O)[C@H]1C[C@H]2C(=O)NCC(=O)N2[C@H]1c1cccc(OCCO)c1`, 1.08; for `C[C@@H](NC(=O)C[C@@H]1CC[C@H](NC(=O)CN2CCOCC2)[C@H](CO)O1)c1ccccc1`, 1.01.
For the molecule `Cl.c1ccc(CC2=NCCN2)cc1`, the relative growth was found to be 1.06.
As for `COCC(=O)Nc1ccc2c(c1)OC[C@H](C)N(Cc1ccccc1F)C[C@H](C)[C@@H](OC)CN(C)C2=O`, the figure is 1.04.
As for `CC(C(=O)O)c1ccc2c(c1)[nH]c1ccc(Cl)cc12` (stereo not given), the figure is 0.922; as for `C[C@H](CCC(=O)NCC(=O)O)[C@H]1CCC2C3C(C[C@H](O)[C@@]21C)[C@@]1(C)CC[C@@H](O)CC1C[C@H]3O` (stereo not given in full), 1.21.
For `CC(C)NC(=O)N(C)C[C@H]1Oc2cc(-c3ccccc3F)ccc2S(=O)(=O)N([C@H](C)CO)C[C@H]1C` the value was 0.96; for `CCNC(=O)C[C@H]1CC[C@@H](NC(=O)C2CCOCC2)[C@H](CO)O1`, 1.09.
The molecule `COCCNC(=O)C[C@H]1CC[C@@H](NS(=O)(=O)c2ccc(C)cc2)[C@@H](CO)O1` had a relative growth of 1.01.
Regarding `COc1cc(C(=O)NCc2ccc(OCCN(C)C)cc2)cc(OC)c1OC.Cl`, the relative growth is 0.975.
For `O=C1c2c(O)cccc2C([C@@H]2O[C@H](CO)[C@@H](O)[C@H](O)[C@H]2O)c2cc(CO)cc(O)c21` (stereo not given in full) the value was 0.916; for `NC(=O)N1C(=O)[C@H]2[C@H](C1=O)[C@H]1C=C(c3ccc(CO)cc3)[C@@H]2[C@@H](C2CC2)N1Cc1cc2c(cc1Br)OCO2`, 1.01; for `CCC(C)[C@H]1O[C@]2(C=C[C@@H]1C)C[C@@H]1C[C@@H](C/C=C(\C)[C@@H](OC3C[C@H](OC)C(O[C@H]4C[C@H](OC)[C@@H](NC(C)=O)[C@H](C)O4)[C@H](C)O3)[C@@H](C)/C=C/C=C3\CO[C@@H]4[C@H](O)C(C)=C[C@@H](C(=O)O1)[C@]34O)O2` (stereo not given in full), 0.956.
